Assay results: ChEMBL document CHEMBL5058645, “Data for DCP probe JNJ-6204” (2022)
Active and inactive are the calls of the source. The calls are words filed in the database; no cut-off is given here.

Sequences of proteins named here, by UniProt entry; tags and fusion partners are left off. A change or cut given only in a name is not applied to a line headed by its entry.
UniProt P48730: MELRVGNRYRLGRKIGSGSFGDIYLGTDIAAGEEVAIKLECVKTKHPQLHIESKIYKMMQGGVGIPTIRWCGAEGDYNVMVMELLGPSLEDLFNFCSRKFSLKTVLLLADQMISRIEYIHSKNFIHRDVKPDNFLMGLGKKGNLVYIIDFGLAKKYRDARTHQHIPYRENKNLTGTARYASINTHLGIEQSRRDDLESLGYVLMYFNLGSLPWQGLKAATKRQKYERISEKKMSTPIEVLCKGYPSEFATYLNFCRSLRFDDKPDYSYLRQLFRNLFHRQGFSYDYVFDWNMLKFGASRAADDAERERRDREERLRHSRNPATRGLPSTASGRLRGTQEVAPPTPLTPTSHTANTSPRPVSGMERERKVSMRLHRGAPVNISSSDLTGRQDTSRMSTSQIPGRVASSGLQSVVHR

Columns and labels:
[1] = target: T1, Casein kinase I isoform delta (Homo sapiens, UniProt P48730); experiment: BRET whole cell binding assay
[2] = target: T1, Casein kinase I isoform delta

- IC50 [1]: active: 0.072 µM
- IC50 [2]: active: 0.542 µM
Structure (SMILES): [2H]C([2H])([2H])C1(C([2H])([2H])[2H])Cn2nc(-c3ccc(F)cn3)c(-c3ccnc4[nH]ncc34)c2CO1
